According to US6784201B2, “Benzothiepines having activity as inhibitors of ileal bile acid transport and taurocholate uptake” (G.D. Searle & Company, priority 1994, dated 2004):
Read-outs that look alike come from different tables or passages of the source.

The chains behind the UniProt entries cited, without tags or fusion partners.
UniProt Q12908, whole entry: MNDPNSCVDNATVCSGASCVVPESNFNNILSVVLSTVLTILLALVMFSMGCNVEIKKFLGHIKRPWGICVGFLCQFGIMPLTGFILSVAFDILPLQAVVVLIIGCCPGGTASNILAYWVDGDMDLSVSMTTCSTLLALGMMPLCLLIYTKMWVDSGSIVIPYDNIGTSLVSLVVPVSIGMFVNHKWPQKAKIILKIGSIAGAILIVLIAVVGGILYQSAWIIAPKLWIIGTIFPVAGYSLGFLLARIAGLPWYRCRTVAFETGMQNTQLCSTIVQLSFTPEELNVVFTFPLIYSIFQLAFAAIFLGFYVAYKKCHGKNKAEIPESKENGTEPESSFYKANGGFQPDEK

Molecular target: human IBAT (Homo sapiens, UniProt Q12908)
Assay: In vitro assay of IBAT-mediated uptake of [14C]-taurocholate (TC) in H14 cells
Format: cell-based
Conditions: read-out: Human TC IC50

IC50 [nM]	SMILES	further results
7	CCCCC1(CCCC)CS(=O)(=O)c2ccc(N(C)C)cc2[C@@H](c2ccc3c(c2)OCO3)[C@H]1O (relative stereo) [1105]	–
23	CCCCC1(CCCC)CS(=O)(=O)c2ccc(N(C)C)cc2[C@@H](c2ccc(OCCCCCCBr)c(F)c2)[C@H]1O (relative stereo)	–

The remaining lines, values behind:

SMILES	IC50 [nM]	further results
CCCC[C@]1(CC)CS(=O)(=O)c2ccc(Br)cc2[C@@H](c2ccc3c(c2)OCO3)[C@H]1O (relative stereo) [1216]	390	–
CCCCC1(CCCC)CS(=O)(=O)c2ccc(N(C)C)cc2[C@@H](c2ccc(OCCCCCC[N+](CC)(CC)CC)c(F)c2)[C@H]1O (relative stereo)	–	IC50 (tested form: trifluoroacetate): 1.5 nM
CCCCC1(CCCC)CS(=O)(=O)c2ccc(N(C)C)cc2[C@@H](c2cccc(OCCOCCOCC[N+](CC)(CC)CCN(CC)CC)c2)[C@H]1O (relative stereo)	–	IC50 (tested form: iodide): 3 nM
CCCCC1(CCCC)CS(=O)(=O)c2ccc(N(C)C)cc2[C@@H](c2ccc(OCCOCCOCC[N+](c3ccccc3)(c3ccccc3)c3ccccc3)cc2)[C@H]1O (relative stereo)	–	IC50 (tested form: iodide): 3 nM
CCCCC1(CCCC)CS(=O)(=O)c2ccc(Br)cc2[C@@H](c2ccc3c(c2)OCO3)[C@H]1O (relative stereo)	79	–
CCCC[C@@]1(CC)CS(=O)(=O)c2ccc(C(=O)OC)cc2[C@@H](c2ccc3c(c2)OCO3)[C@H]1O (relative stereo)	290	–
